{"source": "paper PMC8397634", "about": "(Journal of Natural Medicines, 2021)", "key": {"[1]": {"test": "Brain bioavailability assay in zebrafish (UPLC-HRMS of brain homogenate)", "format": "in vivo, Danio rerio", "settings": "zebrafish brain after 20-min exposure, linear relationship assumed, mean ± SEM", "method": "Four fish (2 males and 2 females) per compound were used to determine the brain bioavailability of the compounds. Immediately after the 20-min compound treatment, the zebrafish were rinsed briefly to remove excessive compound on their body and terminated with 250 mg/L tricaine (CAS No. 886-86-2; Sigma). The fish were decapitated at the level of the gills using a surgical knife. The head was turned dorsal side down, and soft tissue was removed from the ventral side of the skull until the base of the skull was exposed. The skull was broken open and the bone from the ventral side of the brain was removed. The brain was then placed in a microcentrifuge tube, weighed, snap-frozen in liquid nitrogen, and stored at – 80 °C until the analysis.\nBriefly, on the day of analysis, the brain samples were defrosted, resuspended in a methanol solution (2:1 [v/v] methanol:MilliQ water), and homogenized with vigorous agitation and ultrasonication (5 min each). The homogenate was centrifuged at 15,000 × rpm for 10 min, and the supernatant was analyzed using a UPLC-Q Exactive Orbitrap-HRMS system (Thermo Fisher Scientific™, Bremen, Germany). Chromatographic separation was achieved on a Synergi™ 4-µm Hydro-RP 80 Å, L.C. Column (250 × 4.6 mm; Phenomenex Inc., Torrance, CA, USA) with 0.1% formic acid in water (mobile phase A) and 0.1% formic acid in acetonitrile (mobile phase B). […]"}, "α4β2 nAChRs": {"molecular_target": "α4β2 nAChRs (Homo sapiens, UniProt P17787+P43681)", "test": "In vitro nAChR functional assay (automated patch-clamp, CHO cells)", "format": "cell-based", "settings": "CHO cells stably expressing human α4β2 nAChRs, 24 °C, mean ± SEM (Fig. 1)", "method": "Electrophysiological responses were recorded using an automated patch-clamp Patchliner Octo® system (Nanion Technologies, Munich, Germany) equipped with two EPC-10 Quadro patch-clamp amplifiers (HEKA Elektronik, Lambrecht, Germany) as described previously. Chinese hamster ovarian (CHO) cells stably expressing human α4β2 nAChRs (Charles River Laboratories, Wilmington, MA, USA) were used. All experiments were performed at room temperature (24 °C) and repeated at least three times. Data were analyzed using Patchmaster software (HEKA Elektronik). Offline data analysis was performed in Apache OpenOffice™ (v4.1.2; […]). Igor Pro software (v6.2.2.2; WaveMetrics, Lake Oswego, OR, USA) was used to determine EC50 values. […] The average values were then fitted to the Hill equation: I=Baseline+X^∧nH(Imax-Baseline)/X^∧nH+EC50^∧nH, where I is the current response, Baseline is the minimal current response, X is the agonist concentration, nH is the Hill coefficient, Imax is the maximal current, and EC50 is the agonist concentration producing half-maximal activation. […]"}}}
{"substance": "( ±)-nornicotine", "values": [{"measurement": "Relative brain level per 1 mg/L compound", "setting": "[1]", "result": "0.07 ± 0.01", "unit": "ng/mg tissue"}, {"measurement": "Relative brain level per 1 mg/L compound", "setting": "[1]; listed as nornicotine", "result": "less than 0.1 ng/mg tissue"}, {"measurement": "EC50", "setting": "α4β2 nAChRs", "result": "4.9 ± 0.7", "unit": "µM"}, {"measurement": "EC50", "setting": "α4β2 nAChRs; listed as nornicotine", "result": "< 8", "unit": "µM"}]}
